Results as given in ChEMBL document CHEMBL3886850, “Carboxamide derivatives” (2016).

Experiment: Biochemical Assay: For the biochemical assay panel, 50 nl of the test compounds, reference compounds and buffer/DMSO control are transferred to the respective wells of a 384-well white GREINER "SMALL VOLUME" PS plate. The assay panel is run at room temperature on a Biomek FX liquid handling workstation. To the assay plates containing 50 nl compound or control solutions in 90% DMSO, 4.5 ul of E3 ligase solution were added per well, followed by 4.5 ul of the pre-incubated E1/E2/Ub mix or the pre-diluted ubiquitin (LOW control). Plates are shaken vigorously after each addition. In this assay the compound concentrations range from 3 nM to 10 uM in an 8-point dose-response curve. After 45 min of incubation the ubiquitinylation reactions were stopped by adding 4.5 ul 2 mM NEM, immediately followed by 4.5 ul of a detection solution including the XL665-labeled antibody and the streptavidin-coupled europium to give a total volume of 18 ul. After an incubation time of 45 min in the dark, the plates are transferred into the Pherastar fluorescence reader to measure the TR-FRET signal.

IC50: 840 nM
SMILES: Cc1c(C(=O)Nc2c(C)n(C)n(C3CCCCC3)c2=O)noc1[C@@H]1OC[C@@H](C(C)(C)C)O1
